In patent US20240122941A1, “THERAPY BASED ON SYNTHETIC LETHALITY IN SWI/SNF COMPLEX-DYSFUNCTION CANCER” (NATIONAL CANCER CENTER, priority 2020, published 2024):
pIC50: −log10 of the molar value. Each block holds one compound with its values, some of them ahead of it.

The chains behind the UniProt entries cited, without tags or fusion partners. Residues count along the entry.
UniProt Q92793, 1085-1192: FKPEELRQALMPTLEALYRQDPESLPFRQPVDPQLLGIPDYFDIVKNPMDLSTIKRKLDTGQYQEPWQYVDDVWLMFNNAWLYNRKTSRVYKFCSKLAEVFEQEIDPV

Legend:
[1] = test system: SMARCA2/A4 deficient cell group versus SMARCA2/A4 wild-type cell group; assay: Experiment comparing sensitivity depending on the presence/absence of SMARCA2/A4; type: cell-based; details: 6 days culture, CellTiter-Glo, FIG. 8; result in words
Source text: Cytotoxic activity of a CBP/P300 inhibitor on SMARCA2/A4 deficient cells, i.e., A427 cells (pulmonary adenocarcinoma derived), H23 cells (pulmonary adenocarcinoma derived), COV434 cells (ovarian granulosa tumor derived), TOV112D cells (small cell ovarian cancer derived), SW13 cells (adrenocortical cancer derived) and DMS114 cells (small cell lung cancer derived), and SMARCA2/A4 wild-type cells, i.e., H1048 cells, H460 cells, 786-O cells, H2228 cells, H2009 cells, and H358 cells was compared.

[2] = test system: SS18-SSX fusion cancer cell group versus SS18/SSX wild-type cell group; assay: Experiment comparing sensitivity depending on the presence/absence of SS18-SSX fusion gene; type: cell-based; details: 6 days culture, CellTiter-Glo, FIG. 11; result in words
Source text: Cytotoxic activity of a CRP/P300 inhibitor on SS18-SSX fusion cancer cells, i.e., Aska-SS cells (synovial sarcoma derived), Fuji cells (synovial sarcoma derived), YaFuss cells (synovial sarcoma derived), HS-SY-II cells (synovial sarcoma derived), and Yamato-SS cells (synovial sarcoma derived), and SS18/SSX wild-type cells, i.e., H1048 cells, H460 cells, 786-O cells, H2228 cells, H2009 cells, and H358 cells, was compared.

[3] = test system: JMU-RTK-2 cells (malignant rhabdoid tumor derived, SMARCB1 deficient); assay: Selectivity in cell growth suppression, JMU-RTK-2 cells
CBP bromodomain = CBP bromodomain (Homo sapiens (Human), UniProt Q92793); assay: BRD inhibition experiment, CBP bromodomain TR-FRET Assay Kit

SMILES: CO[C@H]1CC[C@H](n2c([C@@H]3CCCC(=O)N3c3ccc(F)c(F)c3)nc3cc(-c4c(C)noc4C)ccc32)CC1 [CCS-1477]
IC50 value for the SMARCA2/A4 deficient cell group compared with the SMARCA2/A4 wild-type cell group [1]: less than the IC50 value for the SMARCA2/A4 wild-type cell group | IC50 value for the SS18-SSX fusion cancer cell group compared with the SS18/SSX wild-type cell group [2]: less than the IC50 value for the SS18/SSX wild-type cell group

SMILES: CO[C@H]1CC[C@H](n2c([C@@H]3CCCC(=O)N3c3ccc(F)c(F)c3)nc3cc(-c4c(C)noc4C)ccc32)CC1 [Compound 9]
Selective Index [3]: 5.6 | pIC50 (CBP bromodomain): > 7.60

inhibition of BRD function (CBP bromodomain): inhibit BRD function
SMILES: COc1ccc(CCc2nc3cc(-c4c(C)noc4C)ccc3n2C[C@H](C)N2CCOCC2)cc1Cl [SGC-CBP30, reference compound]
